Data reported in the supplement of paper PMC12582362.
Most of the hits are listed elsewhere, so they are rarer here than in the full data.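 How the source made its calls: active = robust z-score below -2; a few such results were not called.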

system: optoTopBP1 Flp-In 293 T-REx (HEK293) cells; test: light-induced TopBP1 condensate (nuclear foci) count, plate-normalised robust z-score vs non-control wells; higher = more TopBP1 condensates (negative = condensation inhibitor), active = hit call of the paper; details: 10 µM; incubation time 2 h

| Compound | light-induced TopBP1 condensate (z-score) |
| --- | --- |
| COc1cc(Br)c(C[N+]2(CCOCCC3CCC4CC3C4(C)C)CCOCC2)cc1OC (stereo unspecified) [Pinaverium bromide] | inactive: 0.303 |
